According to US12616680B2, “Combined use of biotin and thiamine in the treatment of huntington's disease” (CONSEJO SUPERIOR DE INVESTIGACIONES CIENTÍFICAS (CSIC), priority 2019, dated 2026):

Test system: R6/1 mice
Details: oral in drinking water from 3 weeks of age, open field at 13 weeks, rotarod at 18 weeks, biotin 10 mg/kg/day or thiamine 200 mg/kg/day, given separately, FIG. 6A-B

SMILES: O=C(O)CCCC[C@@H]1SC[C@@H]2NC(=O)N[C@@H]21 [biotin]
- effect on hypoactivity (open field, distance covered) and motor coordination deficit (rotarod, time to fall): only showed improving trends in some of the behavioural tests
